Target: NPFF2 (Homo sapiens, UniProt Q9Y5X5)
Test: Receptor Selection and Amplification Technology (R-SAT) functional assay, NPFF2
Assay type: cell-based
Settings: for NPFF2 % Efficacy: Table 1, Efficacy is relative to endogenous ligand; for NPFF2 pEC50: Table 1, NA = No activity detectable at the highest dose tested (20 μM)

The chains behind the UniProt entries cited, without tags or fusion partners. Residues count along the entry.
UniProt Q9Y5X5, 103-522: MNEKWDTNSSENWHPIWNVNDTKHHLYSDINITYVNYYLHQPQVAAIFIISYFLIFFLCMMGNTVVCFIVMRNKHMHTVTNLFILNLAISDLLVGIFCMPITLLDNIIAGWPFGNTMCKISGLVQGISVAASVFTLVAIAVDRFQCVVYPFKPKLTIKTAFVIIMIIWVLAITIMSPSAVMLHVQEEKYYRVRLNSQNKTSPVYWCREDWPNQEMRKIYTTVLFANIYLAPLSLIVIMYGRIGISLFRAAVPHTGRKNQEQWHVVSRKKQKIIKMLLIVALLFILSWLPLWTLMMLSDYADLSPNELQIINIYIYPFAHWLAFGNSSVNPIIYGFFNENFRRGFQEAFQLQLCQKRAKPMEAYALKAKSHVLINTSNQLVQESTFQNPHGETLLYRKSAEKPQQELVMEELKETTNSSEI

| SMILES | NPFF2 % Efficacy | NPFF2 pEC50 |
| --- | --- | --- |
| C/C(=N\NC(=N)N)c1ccc(Cl)cc1Cl | 53% | 5.2 |
| CN(C)c1ccc(/C=N/NC(=N)N)cc1 | 105% | 5.4 |
| COc1cccc(/C=N/NC(=N)N)c1 | 47% | 5.0 |
